The values that follow are results of earlier work, collected in patent US20130096134A1, “HETEROCYCLIC COMPOUNDS AND THEIR USES” (Amgen Inc., priority 2010, published 2013).

By UniProt entry, the sequences of proteins in these tests, tags left out.
UniProt P42338, whole entry, species assumed: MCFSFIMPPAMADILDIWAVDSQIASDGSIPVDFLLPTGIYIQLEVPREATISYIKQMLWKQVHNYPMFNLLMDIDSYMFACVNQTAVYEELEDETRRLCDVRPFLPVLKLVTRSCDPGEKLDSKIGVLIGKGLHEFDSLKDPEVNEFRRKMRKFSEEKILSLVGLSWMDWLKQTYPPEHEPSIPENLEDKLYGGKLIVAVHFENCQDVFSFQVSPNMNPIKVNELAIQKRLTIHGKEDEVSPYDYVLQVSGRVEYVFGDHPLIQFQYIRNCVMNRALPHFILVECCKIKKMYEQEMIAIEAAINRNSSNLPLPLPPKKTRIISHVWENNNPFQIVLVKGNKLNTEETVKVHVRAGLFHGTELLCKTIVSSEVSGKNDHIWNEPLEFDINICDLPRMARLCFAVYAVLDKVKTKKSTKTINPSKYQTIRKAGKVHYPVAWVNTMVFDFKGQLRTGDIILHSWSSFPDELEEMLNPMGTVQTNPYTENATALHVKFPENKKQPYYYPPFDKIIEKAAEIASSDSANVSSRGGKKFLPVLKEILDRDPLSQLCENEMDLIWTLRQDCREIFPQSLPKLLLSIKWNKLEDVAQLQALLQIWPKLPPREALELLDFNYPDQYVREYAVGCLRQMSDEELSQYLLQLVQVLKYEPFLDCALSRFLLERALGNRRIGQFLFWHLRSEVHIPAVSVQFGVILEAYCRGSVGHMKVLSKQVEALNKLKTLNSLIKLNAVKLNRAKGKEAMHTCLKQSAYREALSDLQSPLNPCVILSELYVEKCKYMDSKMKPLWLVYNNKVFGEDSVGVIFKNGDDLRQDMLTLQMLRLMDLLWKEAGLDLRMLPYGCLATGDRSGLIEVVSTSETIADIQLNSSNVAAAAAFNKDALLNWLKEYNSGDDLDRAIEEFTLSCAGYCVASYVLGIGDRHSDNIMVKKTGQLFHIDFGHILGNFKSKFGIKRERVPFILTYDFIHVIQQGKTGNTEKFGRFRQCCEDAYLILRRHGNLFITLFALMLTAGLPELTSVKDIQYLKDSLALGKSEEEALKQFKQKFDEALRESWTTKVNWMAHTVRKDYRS

This series concerns the target P110β (Homo sapiens, UniProt P42338). Conditions: read-out: potency on beta.

For the compound `Cc1cc(C(C)Nc2ccccc2)c2nc(N3CCOCC3)cc(=O)n2c1` (stereo not shown) [TGX-221], the IC50 is 7 nM.
